Patent publication US8969405B2, “Anticancer compounds and methods of making and using same” (St. Jude Children's Research Hospital, priority 2008, dated 2015)

Tested on: WiDr colorectal cancer cell line
Test: In vitro cytotoxicity analysis (XTT), 72-hour exposure
Type: cell-based
Details: Homo sapiens, read-out: Cytotoxicity IC50
Experimental: Briefly, cell lines were seeded at various cell densities depending on the cell type.

Compound: CC(/C=C/[C@@H]1C[C@]2(CO2)CC(C)(C)O1)=C\C[C@H]1CC[C@@H](NC(=O)/C=C\[C@H](C)OC(=O)N2CCN(C3CCCCCC3)CC2)CC1 [Compound 24, (S,Z)-5-((1R,4R)-4-((2E,4E)-5-((3R,5S)-7,7-dimethyl-1,6-dioxaspiro[2.5]octan-5-yl)-3-methylpenta-2,4-dienyl)cyclohexylamino)-5-oxopent-3-en-2-yl 4-cycloheptylpiperazine-1-carboxylate]
- IC50: 4 to 5 µM
